The values below come from paper PMC9102066, “Cloning and Functional Characterization of Dog OCT1 and OCT2: Another Step in Exploring Species Differences in Organic Cation Transporters” (International Journal of Molecular Sciences, 2022).

Structures can show the parent of a compound that is named as a salt.

For one series, the target named is T1, human OCT1 (Homo sapiens, UniProt O15245).
T1 construct: expressed in transfected cells; host or cells: HEK293 (Flp-In system)
T1 sequence (O15245 1-554): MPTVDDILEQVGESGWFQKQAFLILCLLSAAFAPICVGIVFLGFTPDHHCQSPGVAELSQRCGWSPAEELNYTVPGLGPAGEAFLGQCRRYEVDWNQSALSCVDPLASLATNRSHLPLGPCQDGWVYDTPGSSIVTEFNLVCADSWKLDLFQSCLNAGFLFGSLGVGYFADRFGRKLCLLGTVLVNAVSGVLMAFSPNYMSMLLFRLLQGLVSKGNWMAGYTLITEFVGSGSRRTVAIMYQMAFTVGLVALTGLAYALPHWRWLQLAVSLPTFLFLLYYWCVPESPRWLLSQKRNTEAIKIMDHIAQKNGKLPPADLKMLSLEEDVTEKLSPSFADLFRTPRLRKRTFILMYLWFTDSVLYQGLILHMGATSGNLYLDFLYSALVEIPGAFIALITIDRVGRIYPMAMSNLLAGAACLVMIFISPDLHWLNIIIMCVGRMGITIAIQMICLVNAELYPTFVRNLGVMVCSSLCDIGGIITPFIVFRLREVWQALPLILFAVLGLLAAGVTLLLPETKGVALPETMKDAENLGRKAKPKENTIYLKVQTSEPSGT
Put plainly: Uptake in HEK293 cells stably overexpressing human OCT1. The class given is in vitro ADME.

The next series concerns the target T2, mouse OCT1 (Mus musculus, UniProt O08966).
T2 construct: expressed in transfected cells; host or cells: HEK293 (Flp-In system)
T2 sequence (O08966 1-556): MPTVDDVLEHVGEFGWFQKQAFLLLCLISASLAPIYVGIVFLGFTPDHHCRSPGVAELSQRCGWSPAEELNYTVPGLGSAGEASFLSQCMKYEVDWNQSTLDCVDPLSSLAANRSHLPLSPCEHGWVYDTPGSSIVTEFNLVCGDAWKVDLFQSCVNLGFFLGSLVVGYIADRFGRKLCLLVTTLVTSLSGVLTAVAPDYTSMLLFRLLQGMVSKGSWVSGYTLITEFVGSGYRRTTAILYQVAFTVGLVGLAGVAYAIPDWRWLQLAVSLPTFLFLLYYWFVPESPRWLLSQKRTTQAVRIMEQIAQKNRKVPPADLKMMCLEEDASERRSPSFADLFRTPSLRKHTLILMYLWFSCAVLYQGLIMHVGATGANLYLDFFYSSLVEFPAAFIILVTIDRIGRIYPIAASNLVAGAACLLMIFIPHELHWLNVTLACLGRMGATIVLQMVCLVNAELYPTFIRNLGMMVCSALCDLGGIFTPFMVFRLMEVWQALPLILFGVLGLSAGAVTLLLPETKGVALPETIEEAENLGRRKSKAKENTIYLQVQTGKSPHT
Description: Uptake in HEK293 cells stably overexpressing mouse OCT1. The class given is in vitro ADME. The note with it: OCT1-mediated uptake, HEK293, 2 min, 37 °C, pH 7.4, control cells subtracted.

The test system of another series is dog OCT2. Put plainly: Uptake in HEK293 cells stably overexpressing dog OCT2. The class given is in vitro ADME.
The target in another series is T3, human OCT2 (Homo sapiens, UniProt O15244).
T3 construct: expressed in transfected cells; host or cells: HEK293 (Flp-In system)
T3 sequence (O15244 1-555): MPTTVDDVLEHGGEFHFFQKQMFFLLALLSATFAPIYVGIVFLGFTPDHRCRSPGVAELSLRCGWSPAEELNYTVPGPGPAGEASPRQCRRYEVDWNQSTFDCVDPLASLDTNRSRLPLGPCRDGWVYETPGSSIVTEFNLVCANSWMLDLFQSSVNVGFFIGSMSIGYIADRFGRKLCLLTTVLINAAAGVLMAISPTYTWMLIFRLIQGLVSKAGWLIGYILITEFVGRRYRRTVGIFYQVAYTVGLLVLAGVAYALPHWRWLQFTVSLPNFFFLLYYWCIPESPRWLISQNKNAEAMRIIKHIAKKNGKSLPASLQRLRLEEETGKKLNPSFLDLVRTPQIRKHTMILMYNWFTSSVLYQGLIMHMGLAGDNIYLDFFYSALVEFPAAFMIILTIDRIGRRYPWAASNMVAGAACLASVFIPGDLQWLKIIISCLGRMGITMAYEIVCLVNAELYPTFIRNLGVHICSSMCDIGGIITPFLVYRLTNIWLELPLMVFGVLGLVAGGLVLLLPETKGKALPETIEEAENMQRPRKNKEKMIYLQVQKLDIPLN
Description: Uptake in HEK293 cells stably overexpressing human OCT2. Format: in vitro ADME. To be noted: OCT2-mediated uptake, HEK293, 2 min, 37 °C, pH 7.4, control cells subtracted.

The subject of another series is dog OCT1. Put plainly: Uptake in HEK293 cells stably overexpressing dog OCT1. The note with it: for difference in transport between dog and mouse OCT1, in words: dog OCT1 versus mouse OCT1.
For series [1] the following is noted: estimated from differences measured in vitro; cited from earlier work.
[2] abbreviates: OCT1-mediated uptake, HEK293, 2 min, 37 °C, pH 7.4, control cells subtracted.

Regarding `CC(Cc1ccc(O)cc1)NCC(O)c1cc(O)cc(O)c1` (stereo not shown) [Fenoterol, Fenoterol hydrochloride], the “vmax ± SEM, hOCT1” value at human OCT1 (setting [2]) was 106 ± 11.8 pmol × min^−1 × mg Protein^−1. Further, at human OCT1 (discussion wording, direction not spelled out), the “fold lower transport capacity (human OCT1 relative to dog OCT1, as worded in the discussion)” value was determined as 12.9 fold. On mouse OCT1, the “vmax ± SEM, mOCT1” value was 912 ± 78.3 pmol × min^−1 × mg Protein^−1. In the series with dog OCT2 (dog OCT2 versus human OCT2), the “fold lower transport by dog OCT2 compared to human OCT2” value worked out at 10 fold. The “uptake by dog OCT2 cells compared to control cells, in words” value in the series with dog OCT2 (especially at low concentrations, data could not be fitted to the Michaelis–Menten equation) was “only a slight increase”. Further, at human OCT2, the “vmax ± SEM, hOCT2” value is 248 ± 21.7 pmol × min^−1 × mg Protein^−1. In the series with dog OCT1 (setting [2]), the “vmax ± SEM, dOCT1” value is listed as 1346 ± 134 pmol × min^−1 × mg Protein^−1. The “fold higher transport capacity (vmax) by dog OCT1 than human OCT1” value with dog OCT1 (dog OCT1 versus human OCT1) was determined as 12.9 fold. Further, the “difference in transport between dog and mouse OCT1, in words” value with dog OCT1 is “did not differ substantially”.

Consider `CN(C)C(=N)N=C(N)N` [Metformin, metformin hydrochloride], for which the “CLint ± SEM, hOCT1” value at human OCT1 (intrinsic clearance = vmax divided by KM for each experiment) is listed as 11.0 ± 2.05 µL × min^−1 × mg Protein^−1. Further, the “estimated concentration in mouse liver, fold higher than in human liver” value in series [1] is recorded as “up to 11 fold”. Moreover, the “fold higher affinity by dog OCT1 than human OCT1” value with dog OCT1 (dog OCT1 versus human OCT1) stood at 5.5 fold. In addition, the “difference in transport between dog and mouse OCT1, in words” value in the series with dog OCT1 is on record as “did not differ substantially”.
